Results published in US20180031580A1, “USE OF IGF-1 AS PROGNOSTIC FACTOR IN CALCIFICATION OF AORTIC VALVES” (THE ASAN FOUNDATION, priority 2015, published 2018).

Chains of the proteins cited; added tags and fusions are not shown. Lines headed by an entry give the natural chain unless they say otherwise; changes in a name come on top.
UniProt P28843: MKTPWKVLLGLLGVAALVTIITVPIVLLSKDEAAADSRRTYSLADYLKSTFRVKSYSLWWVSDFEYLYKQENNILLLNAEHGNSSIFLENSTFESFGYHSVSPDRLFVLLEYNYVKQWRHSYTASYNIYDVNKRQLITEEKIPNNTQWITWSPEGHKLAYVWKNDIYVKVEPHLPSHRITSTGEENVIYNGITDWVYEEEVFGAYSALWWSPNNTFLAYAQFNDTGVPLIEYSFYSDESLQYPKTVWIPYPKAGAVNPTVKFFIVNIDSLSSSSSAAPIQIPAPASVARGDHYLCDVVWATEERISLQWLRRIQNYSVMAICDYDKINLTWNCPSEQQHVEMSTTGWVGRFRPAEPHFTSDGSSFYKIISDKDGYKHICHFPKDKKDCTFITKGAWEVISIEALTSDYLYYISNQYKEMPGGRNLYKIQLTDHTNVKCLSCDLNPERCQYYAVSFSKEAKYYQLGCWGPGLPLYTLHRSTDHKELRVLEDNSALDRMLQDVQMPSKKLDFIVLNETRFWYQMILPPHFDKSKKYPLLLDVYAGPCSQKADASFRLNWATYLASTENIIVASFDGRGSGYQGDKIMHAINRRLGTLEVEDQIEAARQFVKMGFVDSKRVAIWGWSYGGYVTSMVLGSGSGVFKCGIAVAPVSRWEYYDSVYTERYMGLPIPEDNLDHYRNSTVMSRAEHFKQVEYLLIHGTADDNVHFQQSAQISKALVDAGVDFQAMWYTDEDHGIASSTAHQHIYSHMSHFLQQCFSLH

Molecular target: DPP-4 (Mus musculus, UniProt P28843)
Details: wild-type or eNOS-deficient mice treated or not treated with sitagliptin; FIG. 3b

Q: With `N[C@@H](CC(=O)N1CCn2c(nnc2C(F)(F)F)C1)Cc1cc(F)c(F)cc1F` [sitagliptin] as the molecule, how does the “protein concentration of inactivated IGF-1 bound to IGFBP3 in plasma” value read?
A: The value was “reduced”.
